Data on 19 compounds can be found in patent publication US9464084B2, “P2X7 modulators” (Janssen Pharmaceutica NV, priority 2013, dated 2016).

Amino acid sequences for entries named in this document (tags omitted). A change or cut given only in a name is not applied to a line headed by its entry.
UniProt Q99572: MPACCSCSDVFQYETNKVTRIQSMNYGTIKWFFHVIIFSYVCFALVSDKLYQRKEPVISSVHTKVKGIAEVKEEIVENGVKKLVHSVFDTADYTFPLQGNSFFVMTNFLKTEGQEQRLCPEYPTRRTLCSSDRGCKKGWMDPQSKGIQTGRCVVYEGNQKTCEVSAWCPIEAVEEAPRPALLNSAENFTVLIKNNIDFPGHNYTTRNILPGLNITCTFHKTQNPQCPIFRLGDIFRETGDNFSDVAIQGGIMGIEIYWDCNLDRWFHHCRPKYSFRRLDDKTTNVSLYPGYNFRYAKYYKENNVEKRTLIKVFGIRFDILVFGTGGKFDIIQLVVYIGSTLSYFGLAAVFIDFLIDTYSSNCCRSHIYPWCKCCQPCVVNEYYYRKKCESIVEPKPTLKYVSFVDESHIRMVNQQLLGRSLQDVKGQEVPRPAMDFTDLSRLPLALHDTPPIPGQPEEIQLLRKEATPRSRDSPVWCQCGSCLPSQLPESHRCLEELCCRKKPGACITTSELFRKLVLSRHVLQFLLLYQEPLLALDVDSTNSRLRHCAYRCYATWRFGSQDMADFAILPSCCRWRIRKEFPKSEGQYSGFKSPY
UniProt Q64663: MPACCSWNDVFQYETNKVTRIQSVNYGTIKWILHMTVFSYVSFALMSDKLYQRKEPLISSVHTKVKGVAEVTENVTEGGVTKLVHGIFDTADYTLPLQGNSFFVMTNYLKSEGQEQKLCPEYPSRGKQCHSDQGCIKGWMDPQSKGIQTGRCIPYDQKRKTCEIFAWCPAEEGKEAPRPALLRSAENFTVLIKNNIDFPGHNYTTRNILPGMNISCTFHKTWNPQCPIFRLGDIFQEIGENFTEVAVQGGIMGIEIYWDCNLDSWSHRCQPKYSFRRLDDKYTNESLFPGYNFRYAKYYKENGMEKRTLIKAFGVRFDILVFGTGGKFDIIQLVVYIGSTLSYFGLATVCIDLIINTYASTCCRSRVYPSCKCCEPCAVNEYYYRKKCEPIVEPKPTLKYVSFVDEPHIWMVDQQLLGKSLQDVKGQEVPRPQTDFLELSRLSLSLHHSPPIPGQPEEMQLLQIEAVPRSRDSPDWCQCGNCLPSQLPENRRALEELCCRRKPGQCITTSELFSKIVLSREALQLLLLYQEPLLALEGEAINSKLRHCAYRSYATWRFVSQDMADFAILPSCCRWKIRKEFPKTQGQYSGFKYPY

Assay [1] deals with T1, P2X7 (Homo sapiens (Human), UniProt Q99572). In words: P2X7 antagonism in human whole blood (LPS + Bz-ATP induced IL-1β release, ELISA). The format is cell-based. The settings on record: LPS 30 ng/ml, Bz-ATP 1 mM. (In general: ELISA stands for enzyme-linked immunosorbent assay.)
The target in assay [2] is T1, P2X7. In words: Radioligand binding, tritiated A-804598, human P2X7-1321N1 cell membranes.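 Note: ki obtained from the binding IC50 after correction for tracer concentration and tracer affinity.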 To be noted: 1 hour at 4° C.
Assay [3] concerns the target T1, P2X7. In words: Ca2+ flux (FLIPR) in 1321N1 cells expressing recombinant human P2X7 channel.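 Note: Calcium-4 dye-loaded cells exposed to compound for 30 min before agonist addition, fluorescence change read 180 s after agonist.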 To be noted: 250 μM BzATP. The format is cell-based.
Assay [4] has as its target rat P2X7 (Rattus norvegicus (Rat), UniProt Q64663). The experiment in a line: Ca2+ flux (FLIPR) in 1321N1 cells expressing recombinant rat P2X7 channel.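 Note: Calcium-4 dye fluorescence change read 180 s after agonist addition, following 30 min cell preincubation with test compound.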 In kind it is cell-based. To be noted: 250 μM BzATP. (In general: A change in cytosolic calcium serves as a functional read-out for many receptors and channels.)

What is called IC50 is the concentration at which inhibition is half-maximal. As for `O=C(c1cccc(C(F)(F)F)c1Cl)N1CCc2c(ncn2-c2ccccn2)C1CF` (stereo not drawn) [Example 32, (2-Chloro-3-(trifluoromethyl)phenyl)(4-(fluoromethyl)-1-(pyridin-2-yl)-6,7-dihydro-1H-imidazo[4,5-c]pyridin-5(4H)-yl)methanone], the IC50 in assay [1] came to 0.251 µM.

In general, Ki refers to the equilibrium dissociation constant of an inhibitor or competing ligand from its target. Read a low Ki as higher affinity. For `C[C@@H]1c2nnn(-c3ccn[nH]3)c2C[C@H](C)N1C(=O)c1cccc(C(F)(F)F)c1Cl` [Example 310, (2-chloro-3-(trifluoromethyl)phenyl)((4R,6S)-4,6-dimethyl-1-(1H-pyrazol-5-yl)-6,7-dihydro-1H-[1,2,3]triazolo[4,5-c]pyridin-5(4H)-yl)methanone], the Ki in assay [2] came out at 0.005 µM. In addition, the IC50 was found to be 0.0092 µM in assay [3] and 0.0026 µM in assay [4].

On to `CC1c2nnn(-c3ncccc3F)c2CCN1C(=O)c1cccc(C(F)(F)F)c1Cl` (stereo not drawn) [Example 84, 5-{[2-Chloro-3-(trifluoromethyl)phenyl]carbonyl}-1-(3-fluoropyridin-2-yl)-4-methyl-4,5,6,7-tetrahydro-1H-[1,2,3]triazolo[4,5-c]pyridine], for which the IC50 in assay [1] amounted to 0.2 µM.

For `Cc1ccnc(-n2nnc3c2CCN(C(=O)c2cccc(C(F)(F)F)c2Cl)C3C)c1` (stereo not drawn) [Example 299, (2-chloro-3-(trifluoromethyl)phenyl)(4-methyl-1-(4-methylpyridin-2-yl)-6,7-dihydro-1H-[1,2,3]triazolo[4,5-c]pyridin-5(4H)-yl)methanone], affinity in assay [2] was put at a Ki of 0.02 µM. The IC50 in assay [3] came to 0.0081 µM.

Turning to `C[C@@H]1c2nnn(-c3ccc(F)cc3)c2C[C@H](C)N1C(=O)c1cccc(C(F)(F)F)c1Cl` [Example 287, (2-chloro-3-(trifluoromethyl)phenyl)((4R,6S)-1-(4-fluorophenyl)-4,6-dimethyl-6,7-dihydro-1H-[1,2,3]triazolo[4,5-c]pyridin-5(4H)-yl)methanone], in assay [2], the Ki was determined as 0.0141 µM. The results for the IC50 in assay [3] and in assay [4] were 0.007 µM and 0.0028 µM, respectively.

As to `C[C@H]1Cc2c(nnn2-c2ccc(F)cc2)[C@H](C)N1C(=O)c1cccc(C(F)(F)F)c1Cl` [Example 285, (2-chloro-3-(trifluoromethyl)phenyl)((4S,6S)-1-(4-fluorophenyl)-4,6-dimethyl-6,7-dihydro-1H-[1,2,3]triazolo[4,5-c]pyridin-5(4H)-yl)methanone], the IC50 in assay [3] was determined as 0.671 µM.

Turning to `O=C(c1cccc(C(F)(F)F)c1Cl)N1CCc2c(nnn2-c2cnccn2)C1c1ccccc1` (stereo not drawn) [Example 77, 5-{[2-Chloro-3-(trifluoromethyl)phenyl]carbonyl}-4-phenyl-1-pyrazin-2-yl-4,5,6,7-tetrahydro-1H-[1,2,3]triazolo[4,5-c]pyridine], the IC50 in assay [3] turned out to be 0.126 µM.

In the case of `C[C@@H]1c2nnn(-c3cnccn3)c2CCN1C(=O)c1ccc(F)c(Cl)c1Cl` (single isomer, unassigned) [Example 143, (R*)-(2,3-Dichloro-4-fluorophenyl)(4-methyl-1-(pyrazin-2-yl)-6,7-dihydro-1H-[1,2,3]triazolo[4,5-c]pyridin-5(4H)-yl)methanone], the IC50 in assay [3] and in assay [4] was over 10 µM each time.

Consider `C[C@H]1Cc2c(nnn2-c2ncc(F)cn2)CN1C(=O)c1ccc(Cl)c(F)c1Cl` (single isomer, unassigned) [Example 218, (6S*)-5-[(2,4-Dichloro-3-fluorophenyl)carbonyl]-1-(5-fluoropyrimidin-2-yl)-6-methyl-4,5,6,7-tetrahydro-1H-[1,2,3]triazolo[4,5-c]pyridine], for which, in assay [3], the IC50 is 0.0124 µM.

Turning to `CC1Cc2c(nnn2-c2ncc(F)cn2)CN1C(=O)c1ccc(Cl)c(F)c1Cl` (stereo not drawn) [Example 216, 5-[(2,4-Dichloro-3-fluorophenyl)carbonyl]-1-(5-fluoropyrimidin-2-yl)-6-methyl-4,5,6,7-tetrahydro-1H-[1,2,3]triazolo[4,5-c]pyridine], the IC50 in assay [3] is 0.0126 µM; in assay [4], 0.0834 µM.

Compound `C[C@@H]1Cc2c(nnn2-c2ccn[nH]2)[C@H](C)N1C(=O)c1cccc(C(F)(F)F)c1Cl` [Example 297, (2-chloro-3-(trifluoromethyl)phenyl)((4S,6R)-4,6-dimethyl-1-(1H-pyrazol-5-yl)-6,7-dihydro-1H-[1,2,3]triazolo[4,5-c]pyridin-5(4H)-yl)methanone] yielded a Ki in assay [2] of 0.01 µM. Also, the IC50 in assay [3] amounted to 0.005 µM; in assay [4], 0.0056 µM.

Turning to `C[C@H]1Cc2c(nnn2-c2ccn[nH]2)[C@H](C)N1C(=O)c1cccc(C(F)(F)F)c1Cl` [Example 319, (2-chloro-3-(trifluoromethyl)phenyl)((4S,6S)-4,6-dimethyl-1-(1H-pyrazol-5-yl)-6,7-dihydro-1H-[1,2,3]triazolo[4,5-c]pyridin-5(4H)-yl)methanone], the IC50 in assay [3] came to 10 µM.

As to `CCOC(=O)C1c2ncn(-c3ccccc3)c2CCN1C(=O)c1cccc(Cl)c1Cl` (stereo not drawn) [Example 27, Ethyl 5-(2,3-dichlorobenzoyl)-1-phenyl-4,5,6,7-tetrahydro-1H-imidazo[4,5-c]pyridine-4-carboxylate], in assay [3], the IC50 worked out at 0.18 µM.

Turning to `CC1Cc2c(nnn2-c2ccc(F)cc2)C(C)N1C(=O)c1cccc(C(F)(F)F)c1Cl` (stereo not drawn) [Example 243, (2-Chloro-3-(trifluoromethyl)phenyl)(1-(4-fluorophenyl)-4,6-dimethyl-6,7-dihydro-1H-[1,2,3]triazolo[4,5-c]pyridin-5(4H)-yl)methanone], in assay [2], the Ki worked out at 0.0631 µM. In addition, the IC50 stood at 0.016 µM in assay [3] and 0.015 µM in assay [4].

For `Cc1ccnc(-n2nnc3c2CCN(C(=O)c2cccc(Cl)c2Cl)C3C)c1` (stereo not drawn) [Example 237, (2,3-dichlorophenyl)(4-methyl-1-(4-methylpyridin-2-yl)-6,7-dihydro-1H-[1,2,3]triazolo[4,5-c]pyridin-5(4H)-yl)methanone], in assay [2], the Ki is 0.0363 µM. In addition, the IC50 in assay [3] is 0.0032 µM; in assay [4] it was 0.128 µM.

Turning to `CC1Cc2c(nnn2-c2ccccc2)C(C)N1C(=O)c1cccc(C(F)(F)F)c1Cl` (stereo not drawn) [Example 240, (2-Chloro-3-(trifluoromethyl)phenyl)(4,6-dimethyl-1-phenyl-6,7-dihydro-1H-[1,2,3]triazolo[4,5-c]pyridin-5(4H)-yl)methanone], the IC50 in assay [3] came out at 0.1 µM.

For the compound `C[C@@H]1Cc2c(nnn2-c2ccc(F)cc2)[C@@H](C)N1C(=O)c1cccc(C(F)(F)F)c1Cl` [Example 284, (2-chloro-3-(trifluoromethyl)phenyl)((4R,6R)-1-(4-fluorophenyl)-4,6-dimethyl-6,7-dihydro-1H-[1,2,3]triazolo[4,5-c]pyridin-5(4H)-yl)methanone], the affinity in assay [2] corresponds to a Ki of 0.316 µM. Besides, the IC50 in assay [3] was 0.24 µM; in assay [4] it was 0.673 µM.

In assay [2], `Cc1cccc(-n2nnc3c2CCN(C(=O)c2cccc(Cl)c2Cl)C3C)n1` (stereo not drawn) [Example 233, (2,3-dichlorophenyl)(4-methyl-1-(6-methylpyridin-2-yl)-6,7-dihydro-1H-[1,2,3]triazolo[4,5-c]pyridin-5(4H)-yl)methanone] gave a Ki of 0.1 µM. The IC50 in assay [3] was found to be 0.006 µM.

With `Cc1cc(C)nc(-n2nnc3c2CCN(C(=O)c2cccc(C(F)(F)F)c2Cl)C3C)n1` (stereo not drawn) [Example 253, (2-Chloro-3-(trifluoromethyl)phenyl)(1-(4,6-dimethylpyrimidin-2-yl)-4-methyl-6,7-dihydro-1H-[1,2,3]triazolo[4,5-c]pyridin-5(4H)-yl)methanone], the Ki in assay [2] was found to be 0.195 µM. Also, the IC50 in assay [3] worked out at 0.185 µM.
